# Patent US7462599B2, “Use of effectors of glutaminyl and glutamate cyclases” (Probiodrug AG, priority 2003, dated 2008)
# Sequences of proteins named here, by UniProt entry; tags and fusion partners are left off. Residues count along the entry.
# UniProt O81226, 1-288: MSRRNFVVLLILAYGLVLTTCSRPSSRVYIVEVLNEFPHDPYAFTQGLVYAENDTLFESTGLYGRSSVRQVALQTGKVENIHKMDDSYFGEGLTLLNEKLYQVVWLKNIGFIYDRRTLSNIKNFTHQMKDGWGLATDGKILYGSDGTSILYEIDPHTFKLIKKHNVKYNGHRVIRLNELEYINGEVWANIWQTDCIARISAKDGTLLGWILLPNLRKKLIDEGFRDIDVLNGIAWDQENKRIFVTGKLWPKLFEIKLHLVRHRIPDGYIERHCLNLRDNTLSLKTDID
# What was measured:
# [1] = target: T1, Papaya QC (Carica papaya, UniProt O81226); test: Fluorometric QC assay with pyroglutamyl aminopeptidase as auxiliary enzyme, papaya QC; settings: for inhibition of papaya QC by the peptide: H-Gln-AMC as substrate; for pH-optimum of cyclization: first-order rate-law conditions; for conversion by papaya QC: analyzed fluorometrically
# [2] = target: T1, Papaya QC; test: Continuous spectrophotometric assay of substrate conversion, papaya QC; settings: for Ki* / Ki: n.i. = no inhibition
# [3] = target: T1, Papaya QC; test: MALDI-TOF qualitative substrate conversion, papaya QC
# [4] = system: Papaya QC; test: Continuous spectrophotometric assay of substrate conversion, papaya QC
# [5] = Table 6, for substrate inhibition
# [6] = 0.05 M Tricine-NaOH, pH 8.0, 0.5 M KCl
# [7] = 0.1 M pyrophosphate buffer, pH 6.1
molecule,measurement,setting,value
CC(C)C[C@H](NC(=O)[C@H](CCCNC(=N)N)NC(=O)[C@H](CCCCN)NC(=O)[C@H](Cc1ccccc1)NC(=O)[C@@H](N)CCC(=O)O)C(=O)N[C@@H](C)C(N)=O [H-Glu-Phe-Lys-Arg-Leu-Ala-NH2],inhibition of papaya QC by the peptide,[1],not inhibited
NC(=O)CC[C@H](NC(=O)[C@@H](N)CCC(N)=O)C(=O)O [H-Gln-Gln-OH],Km,[2]; Table 6,44 µM
same,kcat,[2]; Table 6,43.2 ± 0.7 s⁻¹
same,Ki*,[2]; [5],n.i.
C[C@H](NC(=O)[C@H](C)NC(=O)[C@H](CO)NC(=O)[C@H](C)NC(=O)[C@H](C)NC(=O)[C@@H](N)CCC(N)=O)C(N)=O [H-Gln-Ala-Ala-Ser-Ala-Ala-NH2],Km,"[2]; Table 7, substrate length",216 µM
same,kcat,"[2]; Table 7, substrate length",78.5 ± 1.0 s⁻¹
CC(C)(C)OC(=O)C(N)CCC(N)=O (centres unmarked) [H-Gln-OtBu],Km,[2]; Table 6,223 µM
same,kcat,[2]; Table 6,49.4 ± 0.6 s⁻¹
same,Ki*,[2]; [5],n.i.
CC(C)[C@H](NC(=O)[C@@H](N)CCC(N)=O)C(=O)O [H-Gln-Val-OH],Ki*,[2]; [5],n.i.
H-Gln-AMC,Km,[2]; Table 6,42 µM
same,kcat,[2]; Table 6,39.4 ± 0.4 s⁻¹
C[C@H](NC(=O)[C@@H](N)CCC(N)=O)C(=O)O [H-Gln-Ala-OH],Km,"[2]; 0.05 M Tricine-NaOH, pH 8.0",137 µM
same,kcat,"[2]; 0.05 M Tricine-NaOH, pH 8.0",69.7 ± .9 s⁻¹
same,kcat,[2]; [6],68.1 ± 0.6 s⁻¹
same,Ki,[2]; [6],n.i.
same,Ki,"[2]; 0.05 M Tricine-NaOH, pH 8.0",n.i.
same,Km,[2]; Table 6,158 µM
same,kcat,[2]; Table 6,69.8 ± 1.0 s⁻¹
same,Ki*,[2]; [5],n.i.
NC(=O)CCC(N)C(N)=O (centres unmarked),kcat,"[2]; 0.05 M Tricine-NaOH, pH 8.0",43.4 ± 0.4 s⁻¹
same,kcat,[2]; [6],45.2 ± 0.3 s⁻¹
same,Ki,[2]; [6],n.i.
same,Ki,"[2]; 0.05 M Tricine-NaOH, pH 8.0",n.i.
same,Km,[2]; Table 6,433 µM
same,kcat,[2]; Table 6,44.8 ± 0.4 s⁻¹
same,Ki*,[2]; [5],n.i.
H-βhomoGln-Phe-Lys-Arg-Leu-Ala-NH2,Km,[2],3100 µM
same,kcat (turnover number),[2],4.0 ± 0.4 s⁻¹
H-Gln-βNA,Km,"[2]; 0.05 M Tricine-NaOH, pH 8.0",36 µM
same,kcat,"[2]; 0.05 M Tricine-NaOH, pH 8.0",48.8 ± 1.0 s⁻¹
same,Km,[2]; [6],32 µM
same,kcat,[2]; [6],47.2 ± 0.8 s⁻¹
same,Ki,[2]; [6],1.33 mM
same,Ki,"[2]; 0.05 M Tricine-NaOH, pH 8.0",1.14 mM
same,Km,[2]; Table 6,38 µM
same,kcat,[2]; Table 6,51.4 ± 1.4 s⁻¹
same,Ki,[2]; [5],1.2 mM
same,pH-optimum of cyclization,[1],8.0
C[C@H](NC(=O)[C@H](C)NC(=O)[C@@H](N)CCC(N)=O)C(N)=O [H-Gln-Ala-Ala-NH2],Km,"[2]; Table 7, substrate length",164 µM
same,kcat,"[2]; Table 7, substrate length",83.2 ± 1.0 s⁻¹
H-Glu-βNA,fold difference of specificity constants (Gln vs Glu cyclization) at the respective pH-optima,[1],"approximately 80,000 fold"
same,Km,"[1]; 0.1 M borate buffer, pH 8.5",1760 µM
same,kcat,"[1]; 0.1 M borate buffer, pH 8.5",0.00933 ± 0.00017 s⁻¹
same,Km,"[1]; 0.1 M phosphate buffer, pH 7.5",1450 µM
same,kcat,"[1]; 0.1 M phosphate buffer, pH 7.5",0.0153 ± 0.00017 s⁻¹
same,Km,[1]; [7],1130 µM
same,kcat,[1]; [7],0.0188 ± 0.00067 s⁻¹
same,conversion by papaya QC,[1],Neither of these compounds were converted
same,ratio of QC versus EC activity,[1]; around pH 6.0,"about 8,000"
same,pH-optimum of cyclization,[1],6.0
C[C@H](NC(=O)[C@H](C)NC(=O)[C@H](C)NC(=O)[C@H](C)NC(=O)[C@@H](N)CCC(N)=O)C(N)=O [H-Gln-Ala-Ala-Ala-Ala-NH2],Km,"[2]; Table 7, substrate length",197 µM
same,kcat,"[2]; Table 7, substrate length",74.6 ± 1.0 s⁻¹
NC(=O)CC[C@H](N)C(=O)NCC(=O)O [H-Gln-Gly-OH],Km,[2]; Table 6,641 µM
same,kcat,[2]; Table 6,45.8 ± 0.4 s⁻¹
same,Ki*,[2]; [5],n.i.
H-Glu(OMe)-β-naphthylamide,conversion by papaya QC,[1],Neither of these compounds were converted
H-Glu(OMe)-Phe-Lys-Arg-Leu-Ala-NH2,inhibition of papaya QC by the peptide,[1],not inhibited
H-Gln(NMe)-Phe-Lys-Ala-Glu-NH2,conversion by papaya QC,[3],only converted into a pyroglutamyl residue by papaya QC
C[C@H](NC(=O)[C@@H](N)CCC(N)=O)C(N)=O [H-Gln-Ala-NH2],Km,"[2]; Table 7, substrate length",212 µM
same,kcat,"[2]; Table 7, substrate length",62.8 ± 3.0 s⁻¹
H-Gln-cyclo(Nε-Lys-Arg-Pro-Ala-Gly-Phe),Km,[2],133 µM
same,kcat (turnover number),[2],49.4 ± 0.6 s⁻¹
same,fold higher kcat/KM-value of papaya QC than human QC,[4],approximately 4 fold
NC(=O)CC[C@H](N)C(=O)N[C@@H](Cc1ccc(O)cc1)C(=O)O [H-Gln-Tyr-OH],Ki*,[2]; [5],n.i.
H-Gln-Lys(Gln)-Arg-Leu-Ala-NH2,conversion by papaya QC,[3],converted
NC(=O)CC[C@H](N)C(=O)N[C@@H](CCC(=O)O)C(=O)O [H-Gln-Glu-OH],Km,"[2]; 0.05 M Tricine-NaOH, pH 8.0",98 µM
same,kcat,"[2]; 0.05 M Tricine-NaOH, pH 8.0",45.0 ± 0.5 s⁻¹
same,kcat,[2]; [6],44.4 ± 0.3 s⁻¹
same,Ki,[2]; [6],n.i.
same,Ki,"[2]; 0.05 M Tricine-NaOH, pH 8.0",n.i.
same,Km,[2]; Table 6,106 µM
same,kcat,[2]; Table 6,50.3 ± 0.6 s⁻¹
same,Ki*,[2]; [5],n.i.
